For orientation: Kd means the concentration at which binding is half-saturated.

Chains of the proteins cited; added tags and fusions are not shown.
UniProt P0DMV8, whole entry: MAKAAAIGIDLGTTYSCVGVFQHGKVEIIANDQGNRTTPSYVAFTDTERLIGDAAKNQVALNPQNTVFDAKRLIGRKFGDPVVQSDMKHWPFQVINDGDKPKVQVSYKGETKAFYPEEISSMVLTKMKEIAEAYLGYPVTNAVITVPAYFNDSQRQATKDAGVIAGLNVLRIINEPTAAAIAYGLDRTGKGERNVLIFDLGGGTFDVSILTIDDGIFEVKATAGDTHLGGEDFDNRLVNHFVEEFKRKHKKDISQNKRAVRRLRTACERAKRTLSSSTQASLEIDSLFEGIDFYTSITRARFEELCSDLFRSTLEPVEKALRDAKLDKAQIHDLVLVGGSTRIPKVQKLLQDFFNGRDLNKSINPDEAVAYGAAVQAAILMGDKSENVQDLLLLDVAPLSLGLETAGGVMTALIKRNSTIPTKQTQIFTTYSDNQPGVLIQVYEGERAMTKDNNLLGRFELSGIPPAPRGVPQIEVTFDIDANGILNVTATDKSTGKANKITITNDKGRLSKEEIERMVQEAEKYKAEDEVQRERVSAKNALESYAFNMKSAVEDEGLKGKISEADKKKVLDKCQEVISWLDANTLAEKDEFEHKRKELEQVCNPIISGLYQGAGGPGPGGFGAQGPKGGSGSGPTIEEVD

The record followed here is article PMC6085657, “DNA display of fragment pairs as a tool for the discovery of novel biologically active small molecules” (Chemical Science, 2014).

One test addresses Hsp70-GST (Homo sapiens, UniProt P0DMV8). In words: Microarray-based screen of the focused library against Hsp70-GST (fluorescence, anti-GST DyLight 649). The following applies: fluorescence intensity on the microarray, mean of four spots, SD between 5% and 10%; PNA-tagged library member. The source says: A microarray pairing 125 biologically validated fragments[11] (FDA-approved drugs, bioactive natural products or fragments thereof) with a library of 500 heterocycles was used as a preliminary screen.[6] The microarray contained 62 500 unique DNA sequences that combinatorially paired both fragment libraries. […] The result from this screen with Hsp70 is shown in Fig. 2, arranged with fragments from the 125-fragment set and 500-fragment set on horizontal and vertical lines, respectively. The recurrence of binding across a line reflects the fitness of a given fragment. Thus, line intensities were used to rank the different fragments. What is interesting is that lines across the library of the 500-fragment set (4B, 24B, 44B, 84B, 124B, …) shared a common structural motif (biaryl-ether; Fig. 2). […] It is noteworthy that this biaryl moiety is part of a previously reported Hsp70 ligand (MAL3-101).[13],[14] […] Although screening fragments as conjugates to a nucleic acid tag restricts their binding mode to a particular orientation (the orientation that will position the linker to the tag toward the outside of the binding pocket), it greatly facilitates the synthesis of the corresponding covalent adduct combining both fragments, as the same chemistry that was used to link the fragments to the tag can be used to covalently pair them. […]

For a further test, the target named is Hsp70 (Homo sapiens, UniProt P0DMV8). Kind of test: SPR affinity measurement, biotinylated compounds immobilized on a streptavidin chip, Hsp70 analyte. The test is classed as binding. As to conditions: read-out: KD HSP70, compound immobilized on streptavidin chip, values in parentheses have chi2 > 10.
A further test addresses Hsp90. In words: SPR affinity measurement, biotinylated compounds immobilized on a streptavidin chip, Hsp90 analyte. The test is classed as binding. As to conditions: read-out: KD HSP90, compound immobilized on streptavidin chip, values in parentheses have chi2 > 10.

Consider `CC1=C(CC(=O)NC(CNC(=O)C=Cc2ccc(C)cc2)C(=O)NCCCCC(NC(=O)COCCOCCNC(=O)CCCCC2SCC3NC(=O)NC32)C(N)=O)c2cc(F)ccc2C1=Cc1ccc([S+](C)[O-])cc1` (stereo not drawn), for which the “FU microarray HSP70-GST” value at Hsp70-GST is listed as 28 945 FU. Also, the figures for the Kd at Hsp70 and on Hsp90 were 7.65 nM and 27 nM, respectively.
